## Antibody variant affinities, Ab-95 light chain, assay 2

From the AlphaSeq antibody data of Engelhart et al. 2022 (doi:10.1038/s41597-022-01779-4), copy in the FLAb collection.

Antigen: PDVDLGDISGINAS, a 14-residue peptide of the SARS-CoV-2 spike HR2 region.

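The parent was found by panning a naive human phage display library on the peptide. Library AAYL52 holds single substitutions and randomly drawn double and triple substitutions in the CDRs. In AlphaSeq, yeast of one mating type display the scFv and yeast of the other type display the target. Binding brings cells together so that they mate, and sequencing counts the barcode pairs among the diploids. The ratio of observed to expected reads was calibrated, replicate by replicate, on BCL2-family standards whose Kd was known from biolayer interferometry. The assay was run in three technical replicates.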

Parent: Ab-95, a human scFv built as VH, a 15-residue (Gly4Ser)3 linker, VL. Only the CDRs of the light chain vary.
VH: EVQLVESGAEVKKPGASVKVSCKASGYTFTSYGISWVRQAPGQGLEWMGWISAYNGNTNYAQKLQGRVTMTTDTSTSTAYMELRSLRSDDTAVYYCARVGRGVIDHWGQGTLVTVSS
VL: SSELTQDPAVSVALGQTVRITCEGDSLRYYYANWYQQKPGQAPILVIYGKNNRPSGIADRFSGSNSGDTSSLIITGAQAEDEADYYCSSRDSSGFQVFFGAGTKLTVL

Variants are written as CDR1, CDR2 and CDR3 of the light chain (limits as in the source). Parent: EGDSLRYYYAN, GKNNRPS, SSRDSSGFQVF.
The read-out is the apparent dissociation constant on a log10 scale (nM): the lower, the stronger.
"ND" means that the variant was in the library but no mating with the target was seen in that replicate; the authors take this as a sign of poor binding, and no number exists.
Empty control strains, which show no peptide, gave a signal in 28% of pairings with library AAYL52; the median was 3.91 and 95% of these signals were weaker than 2.90. No background was subtracted. The control count says in how many pairings with the empty strains this scFv gave a signal, with their mean in brackets.
In this assay the parent's reference entry averaged 2.31; its copy inside this library read 2.25.

| CDR-L1 | CDR-L2 | CDR-L3 | replicates, log10 nM | signal with controls |
|---|---|---|---|---|
| EGDSLRSYYEN | GKNNRAS | SSRDSSGFQVF | 3.96 / ND / ND | 0 of 9 |
| EGDSLRYYYAN | GKNNRNS | SSRMSSGFQVF | 3.08 / 2.30 / 3.65 | 3 of 9 (3.41) |
| IGDSLRYYYAN | YKNNRPS | SSRDYSGFQVF | 5.63 / 3.93 / ND | 2 of 9 (3.27) |
| EGDSLRYYYAN | GKNKRWS | SSRDSSGFQVF | ND / ND / ND | 1 of 9 (1.78) |
| EGDHLRYYYAN | GKNNRPS | SSVDSSGEQVF | 2.66 / ND / 3.76 | 3 of 9 (3.30) |
| EGKSLRCDYAN | GKNNRPS | SSRDSSGFQVF | 2.00 / 2.37 / 3.17 | 3 of 9 (4.21) |
| EWDSIRYYYAN | GKNNRPS | SSRDSSGFQVH | 4.29 / ND / 4.25 | 4 of 9 (3.64) |
| EGASLRYYYAN | GKNNRPS | SSRDSSGFQNK | ND / ND / ND | 1 of 9 (2.61) |
| EGDSLYYEYAN | GKNNRPS | SSRMSSGFQVF | 5.66 / 4.55 / ND | 2 of 9 (3.15) |
| EGDSLRYYYAN | GKNHRPS | SSRDSSGFQVI | 2.75 / 2.72 / ND | 3 of 9 (3.86) |
| EGDSLRYYYAN | GYNNRAS | SVRDSSGFQVF | 3.41 / 2.95 / 3.30 | 2 of 9 (4.50) |
| ESDSLRYYYSN | GKNNRPS | SSRWSSGFQVF | 3.24 / ND / ND | 3 of 9 (4.04) |
| EGPSLRYNYAN | GKNNRPS | SSRDGSGFQVF | 0.66 / 0.70 / 0.09 | 5 of 9 (4.20) |
| EGLSLRYYTAN | GKNNRPS | SSRDSNGFQVF | 3.09 / 3.17 / 3.09 | 0 of 9 |
| EGDSLHYYYAR | GKNNRPS | SSYDSSGFQVF | ND / 3.97 / ND | 3 of 9 (4.04) |
| EGDSLRYYYAN | GKCYRPS | SSRQSSGFQVF | 4.27 / ND / ND | 1 of 9 (3.84) |
| RGDSLRYYYAN | GKNNRPS | SSRDSSGMQVF | 1.98 / 2.48 / 2.46 | 1 of 9 (4.31) |
| EGDSLPYYYAN | GKYNRPS | SSRDSSGFYVF | ND / 5.68 / ND | 2 of 9 (3.96) |
| EYDSLRYYYAN | GKNNRPS | SSRGLSGFQVF | 3.64 / 3.39 / ND | 1 of 9 (3.36) |
| EGDYLRYYYAN | GKNNRPS | SSRDSSGFQVK | 2.17 / 2.60 / 2.21 | 1 of 9 (5.25) |
| EGDMLRYDYAN | GKNNRPS | QSRDSSGFQVF | 2.70 / 4.05 / 3.39 | 2 of 9 (4.95) |
| EGDHLRYYWAN | GKNNRPS | ISRDSSGFQVF | 4.85 / ND / 3.51 | 2 of 9 (4.13) |
| EGDSLNYYYAN | GKNNRPS | STRDSSAFQVF | 3.97 / 2.55 / 3.15 | 1 of 9 (5.13) |
| EGDSLRYYYAN | GKNNRPD | SSRMSSGFQMF | 2.63 / 2.22 / 3.49 | 4 of 9 (3.27) |
| EGDSLRYYHAN | GKNNRPS | SERDMSGFQVF | 3.14 / 3.24 / ND | 0 of 9 |
| ETDSWAYYYAN | GKNNRPS | SSRDSSGFQVF | ND / ND / ND | 0 of 9 |
| ERDSLRYYYAN | GKNNRPS | DSRDSSGFQKF | 4.79 / ND / ND | 1 of 9 (3.83) |
| MGDSLRYYYAN | GKNNRPS | SSYDSSGFQVF | 3.53 / 4.90 / ND | 0 of 9 |
| EGDSLRYYYAN | GKNRRPS | SSRDSSGFVVS | 3.85 / 3.73 / ND | 2 of 9 (3.98) |
| ENDSLRYYYAN | GKINRPS | SSRDGSGFQVF | 5.36 / 4.71 / ND | 4 of 9 (3.75) |
| EGDSVRYYYAN | AKNNRPS | SSRDSSGFHVF | 3.14 / 3.85 / ND | 3 of 9 (4.06) |
| EGDSLRYYNAN | GMNNRPS | SSWDSSGFQVF | 2.66 / 2.68 / 2.25 | 4 of 9 (4.09) |
| LGDSLRYYYAY | GKNNRPS | SSRWSSGFQVF | ND / ND / ND | 1 of 9 (3.07) |

A selection of 2 entries from above:

{"CDR-L1": "EGDHLRYYYAN", "CDR-L2": "GKNNRPS", "CDR-L3": "SSVDSSGEQVF", "replicates, log10 nM": "2.66 / ND / 3.76", "signal with controls": "3 of 9 (3.30)"}
{"CDR-L1": "EGDSLRYYYAN", "CDR-L2": "GKNHRPS", "CDR-L3": "SSRDSSGFQVI", "replicates, log10 nM": "2.75 / 2.72 / ND", "signal with controls": "3 of 9 (3.86)"}